System: Liver microsomes
Test: Antioxidant activity in rat hepatic microsomal membrane

SMILES	IC50
CC(Cc1ccc(O)cc1)NCC(O)c1cc(O)cc(O)c1 (configuration not stated) [FENOTEROL]	229 µM
CC(Cc1ccc(O)cc1)NCC(O)c1cc(O)cc(O)c1 (racemic) [FENOTEROL HBR]	215 µM
